Measured values as given in US8829033B2, “N-benzylamide substituted derivatives of 2-(acylamido)acetic acid and 2-(acylamido)propionic acids: potent neurological agents” (The University of North Carolina at Chapel Hill, priority 2009, dated 2014).

Legend:
[1] = tested on: Rat; assay: Maximal electroshock seizure (MES) test, rat (po); format: in vivo; conditions: orally
[2] = tested on: Rat; assay: Behavioral toxicity, rat (po); format: in vivo; conditions: Table b502, orally

Structure (SMILES)	ED50 [1] [mg/kg]	Rat (po) Tox, TD50 [2] [mg/kg]
COC[C@@H](NC(C)=O)C(=O)NCc1ccc(OCc2ccccc2F)cc1 [(R)-21, (R)—N-4-(2-Fluorobenzyloxy)benzyl 2-Acetamido-3-methoxypropionamide]	11	
COC[C@@H](NC(C)=O)C(=O)NCc1ccc(OCc2ccc(F)cc2)cc1 [(R)-22, (R)—N-4-(4-Fluorobenzyloxy)benzyl 2-Acetamido-3-methoxypropionamide]	5.8	>500
